Earlier results on 1 substance are cited in patent US20220194940A1, “HETEROCYCLIC INHIBITORS OF TYROSINE KINASE” (Board of Regents, The University of Texas System, priority 2019, published 2022).

The data set has as its system HER2 exon 20 insertions. Particulars: by itself; background statement; cited from earlier work.

Take trastuzumab: the “efficacy against HER2 exon 20 insertions” value was “ineffective by itself”.
